Patent US9901553B2, “Method of modulating the activity of a nucleic acid molecule” (DUKE UNIVERSITY, priority 2007, dated 2018)

By UniProt entry, the sequences of proteins in these tests, tags left out. Residues count along the entry.
UniProt P00742, 41-179 limits assumed: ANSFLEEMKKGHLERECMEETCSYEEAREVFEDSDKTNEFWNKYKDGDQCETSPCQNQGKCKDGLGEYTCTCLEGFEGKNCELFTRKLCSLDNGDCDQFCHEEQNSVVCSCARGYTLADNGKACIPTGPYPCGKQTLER
UniProt P00742, 235-488 limits assumed: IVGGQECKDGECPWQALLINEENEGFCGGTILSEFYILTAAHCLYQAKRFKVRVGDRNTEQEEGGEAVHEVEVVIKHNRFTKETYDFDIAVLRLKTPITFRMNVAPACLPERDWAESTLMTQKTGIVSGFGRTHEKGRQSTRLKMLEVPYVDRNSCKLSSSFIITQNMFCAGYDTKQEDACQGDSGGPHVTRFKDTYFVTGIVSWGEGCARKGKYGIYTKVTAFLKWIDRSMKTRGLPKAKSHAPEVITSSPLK

Target: human factor Xa (Homo sapiens, UniProt P00742)
Assay: APTT clotting assay: anticoagulant activity of factor Xa aptamer

11f7t: 37 nt long, 2′fluoropyrimidine modified RNA aptamer to human factor Xa (SEQ ID NO: 2) (GAGAGCCCCAGCGAGAUAAUACUUGGCCCCGCUCUUU; 2'-fluoro at CU, RNA at AG, backbone not given here)
anticoagulant activity (in words) (APTT, FIG. 5C): potent anticoagulant agent | clotting time in aPTT assay (aptamer 250 nM, baseline approximately 28 seconds): approximately 97 seconds
